Results taken from US20240174649A1, “CULLIN-RING E3 UBIQUITIN LIGASE 4 INHIBITOR COMPOUNDS AND METHODS OF THEIR USE” (ICAHN SCHOOL OF MEDICINE AT MOUNT SINAI, priority 2021, published 2024).

The chains behind the UniProt entries cited, without tags or fusion partners.
UniProt Q13619, whole entry: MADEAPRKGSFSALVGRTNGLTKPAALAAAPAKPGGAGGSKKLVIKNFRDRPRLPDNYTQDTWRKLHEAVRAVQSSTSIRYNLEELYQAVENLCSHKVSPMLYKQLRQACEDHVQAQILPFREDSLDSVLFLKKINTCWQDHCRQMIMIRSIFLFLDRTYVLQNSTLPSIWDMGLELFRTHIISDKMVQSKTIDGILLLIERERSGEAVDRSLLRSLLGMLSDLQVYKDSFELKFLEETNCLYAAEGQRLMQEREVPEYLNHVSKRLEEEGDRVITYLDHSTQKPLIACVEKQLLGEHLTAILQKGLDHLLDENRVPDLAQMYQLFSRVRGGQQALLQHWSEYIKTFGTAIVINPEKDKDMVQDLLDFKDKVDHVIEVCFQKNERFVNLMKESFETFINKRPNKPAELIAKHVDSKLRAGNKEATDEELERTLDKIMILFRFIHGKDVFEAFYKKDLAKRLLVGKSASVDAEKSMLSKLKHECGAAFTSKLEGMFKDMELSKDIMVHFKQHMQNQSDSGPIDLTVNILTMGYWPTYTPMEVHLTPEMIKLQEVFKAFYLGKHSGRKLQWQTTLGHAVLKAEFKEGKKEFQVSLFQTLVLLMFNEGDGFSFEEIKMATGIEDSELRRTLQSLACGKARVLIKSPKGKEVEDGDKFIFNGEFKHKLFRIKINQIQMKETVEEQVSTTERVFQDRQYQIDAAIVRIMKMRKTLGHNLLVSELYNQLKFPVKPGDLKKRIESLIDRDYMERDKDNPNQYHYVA
UniProt Q13616, whole entry: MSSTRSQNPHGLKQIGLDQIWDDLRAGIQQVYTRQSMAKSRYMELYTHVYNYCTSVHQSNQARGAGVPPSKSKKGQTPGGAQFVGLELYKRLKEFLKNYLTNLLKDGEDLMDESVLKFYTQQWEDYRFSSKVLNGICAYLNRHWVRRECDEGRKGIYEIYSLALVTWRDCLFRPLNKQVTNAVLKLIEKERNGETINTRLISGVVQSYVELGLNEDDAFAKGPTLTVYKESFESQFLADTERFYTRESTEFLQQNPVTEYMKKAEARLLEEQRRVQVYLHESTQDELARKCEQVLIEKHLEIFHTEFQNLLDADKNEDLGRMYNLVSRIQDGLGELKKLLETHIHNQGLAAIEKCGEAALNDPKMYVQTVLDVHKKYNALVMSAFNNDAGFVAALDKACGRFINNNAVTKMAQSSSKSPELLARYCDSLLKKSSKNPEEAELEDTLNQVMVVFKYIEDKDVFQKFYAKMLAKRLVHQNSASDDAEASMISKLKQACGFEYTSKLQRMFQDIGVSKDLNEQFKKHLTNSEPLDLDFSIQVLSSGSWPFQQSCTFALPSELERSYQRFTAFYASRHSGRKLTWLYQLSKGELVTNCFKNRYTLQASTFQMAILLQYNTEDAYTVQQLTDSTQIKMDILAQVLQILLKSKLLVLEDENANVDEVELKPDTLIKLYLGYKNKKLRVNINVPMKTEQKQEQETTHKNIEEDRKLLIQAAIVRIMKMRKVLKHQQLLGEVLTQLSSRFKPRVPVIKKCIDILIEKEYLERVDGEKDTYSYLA
UniProt P62877, whole entry partner: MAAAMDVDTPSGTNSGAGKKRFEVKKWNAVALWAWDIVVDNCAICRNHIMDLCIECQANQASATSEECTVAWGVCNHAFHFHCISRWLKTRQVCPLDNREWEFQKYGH

Tests used:
E3 (CUL4) = E3 (CUL4) (Homo sapiens (Human), UniProt Q13619); experiment: E3 (CUL4) inhibition (Table 1); format: biochemical; details: tested form: disodium salt
E3 (CUL1) = E3 (CUL1) (Homo sapiens (Human), UniProt Q13616); experiment: E3 (CUL1) inhibition (Table 1); format: biochemical; details: read-out: E3 (CUL1) Inhibition EC50; tested form: disodium salt
cancer cells = experiment: Apoptosis, Annexin V flow cytometry; format: cell-based; details: Table 1; tested form: disodium salt

O=c1c(-c2cnn(-c3ccccc3)c2)c(C(F)(F)F)oc2c(O)c(O)ccc12 [#33-11, 7,8-dihydroxy-3-(1-phenyl-1H-pyrazol-4-yl)-2-(trifluoromethyl)-4H-chromen-4-one]
E3 (CUL4) Inhibition EC50 (E3 (CUL4)): Inactive | EC50 (E3 (CUL1)): 21 µM | Apoptosis EC50 (cancer cells): Inactive
